The numbers were not newly measured in patent US20090181062A1, “DISPENSING A BIRD REPELLANT” (priority 2005, published 2009), which cites them from elsewhere.

In this data set the test system is leaves of treated plants. The following applies: sprayed on fruits and berries, large amounts of large size droplets.

With `COC(=O)c1ccccc1N` [MA, Methyl Anthranilate], the phytotoxicity on leaves result is on record as “severe phytotoxicity”.
